Assay [1] concerns the target -6 layer cross-linked synaptic SNARE complex: VAMP2 (1-92, C2A, Q36C), syntaxin 1 (172-265, C173A, L209C), SNAP25 (1-206) (UniProt P63045). Nature of the assay: single-molecule dual-trap optical tweezers; single SNARE complex tethered by a DNA handle between anti-digoxigenin and streptavidin beads, held at constant trap separation or pulled and relaxed; 8 μM CpxI or fragment supplied through a protein channel; 22 °C, 25 mM HEPES, 50 mM NaCl, 0.02% CA630, pH 7.4, oxygen scavenging system.

Sequences of proteins named here, by UniProt entry; tags and fusion partners are left off. Residues count along the entry.
UniProt P63045, 1-92 Q36C, chain 1 of 3: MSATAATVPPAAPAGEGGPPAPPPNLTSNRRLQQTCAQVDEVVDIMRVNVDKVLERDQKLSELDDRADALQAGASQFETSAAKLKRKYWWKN
UniProt P63041, 26-83: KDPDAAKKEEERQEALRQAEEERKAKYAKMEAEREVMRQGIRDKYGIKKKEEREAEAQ
UniProt P63041, 48-73: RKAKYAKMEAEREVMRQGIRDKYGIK
UniProt P63041, 1-83: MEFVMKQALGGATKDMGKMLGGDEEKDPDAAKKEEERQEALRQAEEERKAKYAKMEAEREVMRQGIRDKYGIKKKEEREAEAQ

For assay [2] the target is unchanged.
For assay [3] the target is unchanged. The source holds these as a separate data set.
Assay [4] shares this target. This is another data set of the same source.

Experimental findings from PMC9905088 are described below.

“CpxI fragment 26-83 aa (AH-CH domain) (from UniProt P63041 26-83) (domain or fragment)” came in with a percent of SNARE complexes that changed state after the addition in assay [1] of 57.5%. Also, in assay [2], the signal rate of the C-terminal blocked state of single SNARE complexes after 8 μM 26-83 aa (optical tweezers) amounted to 31.5% and the signal rate of the C-terminal stabilized state of single SNARE complexes after 8 μM 26-83 aa (optical tweezers) is 66%.

“CpxI CH domain peptide (48-73 aa) (from UniProt P63041 48-73)” returned a share of single SNARE complexes with slightly blocked C-terminal transition after 8 μM CH domain 48-73 aa (optical tweezers) in assay [3] of 96%. Further, in assay [1], the percent of SNARE complexes that changed state after the addition worked out at 81%.

In assay [4], “CpxI fragment 1-83 aa (from UniProt P63041 1-83) (domain or fragment)” returned a share of single SNARE complexes limited to N-terminal transition after 8 μM 1-83 aa (optical tweezers) of 6% and a signal rate of the C-terminal stabilized state of single SNARE complexes after 8 μM 1-83 aa (optical tweezers) of 94%.
